In assay [1] the target is T1, Amyloid-beta precursor protein (Homo sapiens, UniProt P05067). The assay is described as follows: Inhibition of amyloid beta (1 to 42) (unknown origin) aggregation assessed as end-time for aggregation at 200 uM after 48 hrs by Thioflavin-T fluorescence assay.
The target in assay [2] is T1, Amyloid-beta precursor protein. The assay is described as follows: Inhibition of amyloid beta (1 to 42) (unknown origin) aggregation assessed as nucleation constant at 200 uM after 48 hrs by Thioflavin-T fluorescence assay.
Assay [3] shares this target. The assay is described as follows: Inhibition of amyloid beta (1 to 42) (unknown origin) aggregation assessed as apparent elongation constant at 200 uM after 48 hrs by Thioflavin-T fluorescence assay.
Assay [4] has the same target. The assay is described as follows: Inhibition of amyloid beta (1 to 42) (unknown origin) aggregation assessed as half life for aggregation at 200 uM after 48 hrs by Thioflavin-T fluorescence assay.

The chains behind the UniProt entries cited, without tags or fusion partners.
UniProt P05067, whole entry: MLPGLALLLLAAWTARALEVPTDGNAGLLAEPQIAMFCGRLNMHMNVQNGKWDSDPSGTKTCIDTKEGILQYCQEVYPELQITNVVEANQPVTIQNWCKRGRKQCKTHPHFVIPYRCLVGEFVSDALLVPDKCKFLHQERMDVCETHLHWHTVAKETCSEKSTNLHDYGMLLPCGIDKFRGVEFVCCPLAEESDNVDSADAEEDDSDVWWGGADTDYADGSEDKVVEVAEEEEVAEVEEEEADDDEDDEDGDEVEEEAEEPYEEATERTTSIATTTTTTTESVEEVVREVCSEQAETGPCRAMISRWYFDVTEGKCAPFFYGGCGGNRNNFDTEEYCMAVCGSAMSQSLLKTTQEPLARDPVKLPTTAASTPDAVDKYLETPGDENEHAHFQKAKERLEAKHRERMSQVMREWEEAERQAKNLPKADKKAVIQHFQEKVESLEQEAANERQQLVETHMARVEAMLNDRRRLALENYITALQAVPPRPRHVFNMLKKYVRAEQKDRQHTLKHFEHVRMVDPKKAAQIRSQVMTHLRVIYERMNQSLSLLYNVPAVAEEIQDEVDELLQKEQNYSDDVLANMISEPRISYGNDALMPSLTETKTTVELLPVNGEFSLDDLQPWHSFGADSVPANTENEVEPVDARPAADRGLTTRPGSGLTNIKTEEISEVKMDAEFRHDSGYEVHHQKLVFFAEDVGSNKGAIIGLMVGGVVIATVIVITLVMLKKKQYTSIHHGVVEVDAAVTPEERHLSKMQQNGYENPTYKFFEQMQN

The source of these data is ChEMBL document CHEMBL4052599, “Combined in Vitro Cell-Based/in Silico Screening of Naturally Occurring Flavonoids and Phenolic Compounds as Potential Anti-Alzheimer Drugs” (J Nat Prod, 2017).

The structures appear in SMILES notation.

As for `O=c1c(O)c(-c2ccc(O)c(O)c2)oc2cc(O)cc(O)c12` [QUERCETIN], the TIME in assay [1] was found to be 8.39 h. Also, the K in assay [2] worked out at 496 ×10⁶ /min. Besides, the Ke(app) in assay [3] was found to be 114 M⁻¹ s⁻¹. For the same compound, the T1/2 in assay [4] was found to be 4.88 h.
